## Binding of CDR-mutated scFvs to a peptide of the spike HR2 region

Source: Engelhart et al. 2022 (doi:10.1038/s41597-022-01779-4), MIT Lincoln Laboratory and A-Alpha Bio; data file from the FLAb repository.

Binding partner: SARS-CoV-2 spike HR2 peptide, sequence PDVDLGDISGINAS.

The variants keep the light chain, the linker and the frameworks of Ab-91 (scFv order VL, the linker GGGGSGGGGSGGGGS, VH).
VL: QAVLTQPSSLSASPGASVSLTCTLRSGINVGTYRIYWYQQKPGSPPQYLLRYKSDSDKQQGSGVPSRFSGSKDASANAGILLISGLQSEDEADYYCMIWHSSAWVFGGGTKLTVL
VH: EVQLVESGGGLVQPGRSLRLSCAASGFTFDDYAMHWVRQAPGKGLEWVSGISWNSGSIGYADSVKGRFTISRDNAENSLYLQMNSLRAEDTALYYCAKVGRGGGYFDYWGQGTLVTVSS

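The starting antibody came from a phage panning campaign against this peptide. The library (AAYL51) carries one to three amino acid substitutions per variant, with no insertions or deletions. The assay is AlphaSeq: two haploid yeast populations carry antibody and antigen on their surface. After mating in shaken culture at 30 °C for 16 h, diploids were selected and their barcode pairs sequenced. Each replicate has its own calibration line, from reference interactions of the BCL2 family. The assay was run in three technical replicates.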

Variants are written as CDR1, CDR2 and CDR3 of the heavy chain (limits as in the source). Parent: GFTFDDYAMH, GISWNSGSIGYADSVK, VGRGGGYFDY. Scale: log10 of Kd in nM, estimated from mating counts; low values are strong binders. Averages over replicates are reported, and they cover detected replicates only. "nd" means that the variant was in the library but no mating with the target was seen in any replicate; the authors take this as a sign of poor binding, and no number exists.

| CDR-H1 | CDR-H2 | CDR-H3 | log10 Kd (nM), mean | detected |
|---|---|---|---|---|
| GFTFDDYWMH | GQSWNSGSIGYADSVK | TGRGGGYFDY | nd | 0 of 3 |
| GFTFDDYAMH | GISWNSRSIGWADSVK | VGRGGGYNDY | 4.34 | 2 of 3 |
| GFTFDDYAMH | GISTNSGSIGYADSVK | VVRGGGYFDR | 4.79 | 3 of 3 |
| GFTFDDYAMH | GKSGNSGSIGYADSVK | WGRGGGYFDY | nd | 0 of 3 |
| GFTFDDYAMH | GISWNSGSAGYRDSVK | VGRGGRYFDY | nd | 0 of 3 |
| GFTFDDYAMH | GISWNSGSIGYADPVG | VGWGGGYFDY | 4.92 | 3 of 3 |
| GFTFDDYANH | GMSWNSGSIGYADSVK | WGRGGGYFDY | nd | 0 of 3 |
| GFTGDDYAMH | GISWNSGTIGYADSVK | VGRDGGYFDY | 5.34 | 2 of 3 |
| GFTFDDYAMH | GISWNFGSIGYADSVK | VGRGGGTKDY | 4.14 | 1 of 3 |
| GDTFDDYAMH | GISWNSGSIGYADSVK | VGRGGGYFHY | 2.80 | 3 of 3 |
| GFTFDDYAMH | CISWSSGSIGYAHSVK | VGRGGGYFDY | nd | 0 of 3 |
| GFTFDDYAMH | DISWNSGSIGYADSVK | VGRGYGYFDY | nd | 0 of 3 |
| GFTFDDYAMH | GISWNSGSIGYADSNK | VGRGGGYFEY | 2.63 | 3 of 3 |
| GFTFDDYAMH | GISWNSGKIGEAHSVK | VGRGGGYFDY | 5.26 | 1 of 3 |
| RFTFDHYAMH | GISWNSGSIGYADSVK | CGRGGGYFDY | 4.66 | 1 of 3 |
| GFTFDDRAVH | GISWNSGSIGYADSVK | VGRGGGYFDY | nd | 0 of 3 |
| GFTFDDDAMH | GISWNLGTIGYADSVK | VGRGGGYFDY | 4.59 | 3 of 3 |
| GFTFCDYAMH | GSSWNSGSIGYWDSVK | VGRGGGYFDY | 3.24 | 1 of 3 |
| GFTFKDYAMH | GISWNSGSIGYADSYK | VGRGFGYFDY | 4.03 | 3 of 3 |
| GFTFDDYAMH | GISWNSGSIGYADKHK | VGRGFGYFDY | nd | 0 of 3 |
| GWTFFDYAMH | GISWNSGSIGYADSVK | VGRGGGYFDL | 5.62 | 1 of 3 |
| GFTFDDYAMH | GISWMFGSIGYADSVD | VGRGGGYFDY | 4.49 | 1 of 3 |
| GEKFDDYAMH | GISWNSGSIGYADSVK | VGRGGGYFDY | 4.16 | 2 of 3 |
| GFTFDDYAMH | GISWNSHSISNADSVK | VGRGGGYFDY | 5.27 | 2 of 3 |
| GFTFDDYAMH | GISWNSGSIGYADSVK | GGRGGGYFDT | 3.63 | 3 of 3 |
| GFTFDDEAMH | GFSWNSGSIGIADSVK | VGRGGGYFDY | nd | 0 of 3 |
| GFTFDDYAMH | GINWNSGSIGYADSVK | VGRGGLYMDY | 5.54 | 2 of 3 |
| GFTFDDYAMH | GISWNSGSIGYAISVL | QGRGGGYFDY | nd | 0 of 3 |
| GFRFDDYAMH | GISWNSGSILYADSVK | VGRGGGYFAY | 5.40 | 3 of 3 |
| GFTFDDYAMH | GISMNSGSIVSADSVK | VGRGGGYFDY | 3.43 | 1 of 3 |
| GFTFKDYAMH | GISWNSGSIGYADSVK | VKRGGLYFDY | 4.58 | 1 of 3 |

The remaining entries, values ahead:

| log10 Kd (nM), mean | detected | CDR-H1 | CDR-H2 | CDR-H3 |
|---|---|---|---|---|
| 3.85 | 3 of 3 | GFTFHDTAMH | GISWNSGSIGYARSVK | VGRGGGYFDY |
| 2.27 | 3 of 3 | GFTFDDYAMH | GISWNSGSIGYADTVK | VGRGGRYFDE |
| nd | 0 of 3 | GFTFDDYAMH | GFSWNSGSIGYADSVK | CGRGGEYFDY |
| 5.60 | 1 of 3 | GFTFDDYWMH | GISWNCGSIGYKDSVK | VGRGGGYFDY |
| 6.17 | 1 of 3 | GFTVDDYAMA | GISWNSGSIGYADSVK | VGRGGGYFPY |
| 2.27 | 3 of 3 | GFTIDDHAMH | GISWNSGSIGYADSVK | VGRGGGYFDY |
| nd | 0 of 3 | GFTFDDYAMH | GISWNSGVIGYADSVK | VGRGFGYFVY |
| nd | 0 of 3 | GYQFDDYAMH | GISWNSGSIGYADSCK | VGRGGGYFDY |
| nd | 0 of 3 | GFTFDDYAMH | GISWKSGSIGYADSVK | KGRNGGYFDY |
| nd | 0 of 3 | GFTFDDYAMH | GISWNMGSIGYFDSVK | VGRGGGDFDY |
| 4.74 | 2 of 3 | GFTFYDYAVH | GISWNSGSIGYADSVK | VGRGPGYFDY |
| 0.36 | 3 of 3 | GFTFDDYAMH | GISWNSASIGYADNVE | VGRGGGYFDY |
| 4.11 | 2 of 3 | RFTFDDYAMH | GISWNSGSIGYADSVK | VGRQGKYFDY |
| 5.16 | 2 of 3 | GFTFDDYVMM | GISWNSGAIGYADSVK | VGRGGGYFDY |
| nd | 0 of 3 | NFTFDDYAMH | GISWNSGSIGYADSVK | VGRGGWYFDY |
| 4.87 | 2 of 3 | GFTHDDYAMH | GISWNSGSKGYADSVK | VGRGGFYFDY |
| nd | 0 of 3 | GFTFDDYLMH | GIFWNSGSIGYAKSVK | VGRGGGYFDY |
| nd | 0 of 3 | GFTFDDYNMH | GISCNSGSITYADSVK | VGRGGGYFDY |
| nd | 0 of 3 | GFTFDDYAMH | GISWNSGSIGYAVSVK | VGRGGGYFHS |
| 5.63 | 1 of 3 | GFTFDDYTMH | GISWNSGSIKYEDSVK | VGRGGGYFDY |
| 4.65 | 1 of 3 | GFTFDDYAMH | GISWNSGTIGYADSVK | VYRGGGYFDY |
| nd | 0 of 3 | GFTHDDYAMH | GISWNSGSIGYADSWK | VGRGGGYFDY |
| nd | 0 of 3 | GFTFDDYAMH | GISWSSGSIGYADSVK | VGRGGGGFDE |
| 4.69 | 2 of 3 | GFTFDDYAMH | GITWNSGSIGYADSVK | VGRYGGCFDY |
| nd | 0 of 3 | GFTFMDYAMH | GISWQSGSIGYADSVK | DGRGGGYFDY |
| 4.74 | 1 of 3 | IFTSDDYAMH | GISWNSGSMGYADSVK | VGRGGGYFDY |
| nd | 0 of 3 | GFTFDDYAMH | GVYWNSGSIGYADSVK | VGRGGGYFDY |
| nd | 0 of 3 | GFTFDDYAMH | IISWNSVSIGHADSVK | VGRGGGYFDY |
| nd | 0 of 3 | QPTFDAYAMH | GISWNSGSIGYADSVK | VGRGGGYFDY |
| 3.53 | 1 of 3 | GYTFDDYAMH | GISWNSGSIGYADSVK | VKRGGGYFDY |
| nd | 0 of 3 | GFTFDDYMMH | GGSWNSGSIGYADSVK | VGRGGGYFDC |

11 of these entries, quoted again:

CDR-H1,CDR-H2,CDR-H3,"log10 Kd (nM), mean",detected
GFTFDDYAMH,CISWSSGSIGYAHSVK,VGRGGGYFDY,nd,0 of 3
GFTFDDYAMH,GISWMFGSIGYADSVD,VGRGGGYFDY,4.49,1 of 3
GDTFDDYAMH,GISWNSGSIGYADSVK,VGRGGGYFHY,2.80,3 of 3
GFTFDDYAMH,GISWNSGVIGYADSVK,VGRGFGYFVY,nd,0 of 3
GFTHDDYAMH,GISWNSGSIGYADSWK,VGRGGGYFDY,nd,0 of 3
GFTFDDYAMH,GISMNSGSIVSADSVK,VGRGGGYFDY,3.43,1 of 3
GEKFDDYAMH,GISWNSGSIGYADSVK,VGRGGGYFDY,4.16,2 of 3
GFRFDDYAMH,GISWNSGSILYADSVK,VGRGGGYFAY,5.40,3 of 3
GFTFDDYAMH,GFSWNSGSIGYADSVK,CGRGGEYFDY,nd,0 of 3
GFTFDDYAMH,GISWSSGSIGYADSVK,VGRGGGGFDE,nd,0 of 3
RFTFDHYAMH,GISWNSGSIGYADSVK,CGRGGGYFDY,4.66,1 of 3

Parent in this assay: reference entry 1.86, copy in this library 0.88. As a blank, each scFv also met three strains without target: over library AAYL51, 21% of these pairings were detected, typically at 4.54 and seldom below 3.26.